Data as given in US7446095B2, “Peptides modulating caspase activation” (priority 2002, dated 2008).

Test system: caspase-3 activation (DEVDase activity)
Experiment: dATP-dependent Cyt c-induced caspase-3 (DEVDase) activation in cell-free cytosolic extracts of HepG2 cells
Type: biochemical, human
Details: protein 7 μM with dATP 1 mM, no exogenous cyt-c, up to 2 h
Method: Peptides in the concentration of 750 μM were added to the cell extracts 15 min before the cytochrome c addition. Caspase activation was monitored by the cleavage of caspase-3-specific fluorogenic substrate DEVD-AMC.
HepG2, human hepatocarcinoma cells and human monoblastoma cell line U937 originated from American Type Culture Collection. Cell extracts were prepared by lysing cells in a hypotonic extraction buffer. To obtain the cytosolic S-100 fraction, the cell lysate was centrifuged for 1 h at 100,000×g. Extracts were either used immediately or frozen at −70° C. for later use.
Cell-free reactions were typically set up in 13-μl reaction volumes. […] For 13-μl scale reactions, 10 μl of cell extract (˜2-4 mg/ml, as determined by the Bradford assay) were supplemented with 1 μl of dATP, 1 μl of Cyt c and/or AFP solutions in reaction buffer to receive necessary final concentration of reagents. […]
At the end of a caspase activation reaction, extract aliquots (5 μl) were supplemented with fluorogenic substrate DEVD-AMC (3 mM) and then incubated for definite time intervals (0.5-1 h) at 37° C. Reactions were terminated by dilution with addition of 2.0 ml of ice-cold 0.2 mM sodium phosphate buffer, pH 7.5, followed by a measurement of fluorescence with a Perkin Elmer MPF-44A (λexc=365 nm and λem=440 nm ) fluorometer. […]

With “HSA: Human serum albumin, added in equivalent amount as control protein [reference compound]” the “Induction of caspase-3-specific DEVDase activity in S100 cytosolic extract (in words)” value was “no effect”.
